Reference: BindingDB's records for doi:10.1021/jm950711l (University of California, 1996)

Assay: Binding to ryanodine receptor in canine cardiac membranes.

Compound: CC1CCC2(O)C3(C)CC4(O)OC2(C1O)C1(O)C3(O)C(OC(=O)c2ccc[nH]2)C(O)(C(C)C)C41C (stereo unspecified) [Ryanodine Derivative]
- Ki: 1.8 nM
